# Target: T1, human NAPE-PLD (Homo sapiens, UniProt Q6IQ20)
# The chains behind the UniProt entries cited, without tags or fusion partners. Where a name states a change or a piece, a line headed by the entry shows the natural chain unless it says otherwise.
# UniProt Q6IQ20: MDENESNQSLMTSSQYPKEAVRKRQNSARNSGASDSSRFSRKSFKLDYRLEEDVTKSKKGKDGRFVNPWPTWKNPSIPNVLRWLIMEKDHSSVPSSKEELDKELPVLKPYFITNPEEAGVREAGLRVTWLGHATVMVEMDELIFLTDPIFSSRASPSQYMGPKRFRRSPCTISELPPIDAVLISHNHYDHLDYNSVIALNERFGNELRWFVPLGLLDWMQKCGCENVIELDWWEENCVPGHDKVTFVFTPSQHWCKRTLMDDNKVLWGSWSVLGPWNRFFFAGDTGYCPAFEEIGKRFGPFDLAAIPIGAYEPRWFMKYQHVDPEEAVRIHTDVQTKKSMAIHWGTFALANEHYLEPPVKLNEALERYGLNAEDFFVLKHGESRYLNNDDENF
# T1 construct: Full length human cDNA NAPE-PLD was obtained from Natsuo Ueda; made in house; host or cells: HEK293T cells, transient transfection (pcDNA3.1); membrane fraction used
# Experiment: In vitro NAPE-PLD activity assay
# Assay type: biochemical
# Settings: membrane protein fraction of HEK293T cells overexpressing human NAPE-PLD; substrate PED6 1 µM; 30 minutes preincubation at 37 °C
# Method: Full length human cDNA NAPE-PLD was obtained from Natsuo Ueda^1 and cloned into mammalian expression vector pcDNA3.1, containing a C-terminal Flag-tag and genes for ampicillin and neomycin resistance. All plasmids were grown in XL-10 Z-competent cells and prepped (Maxi Prep, Qiagen). Sequence analysis for the confirmation of the sequences was performed at the Leiden Genome Technology Centre.
# HEK293T were cultured at 37 °C and 7% CO2 in DMEM (Sigma Aldrich, D6546) with glutamax, penicillin (100 µg/ml), streptomycin (100 µg/ml) and 10% New Born Calf Serum iron supplemented (Hyclone SH30072.03). Cells were passaged twice a week to appropriate confluence.
# 24 hours before transfection 10^7 cells are seeded on a 15 cm dish. Two hours before transfection medium is refreshed, low volume. Transfection is performed with PEI in a ratio of 3:1 with human NAPE-PLD or Mock pcDNA3.1 Neo, 20 µg per dish. Medium is refreshed after 24 hours and cells are harvested after 72 hours.
# Cell pellets are re-suspended in lysis buffer: 20 mM Hepes, 2 mM DTT, 0.25 M sucrose, 1 mM MgCl2, 2.5 U/ml benzonase and incubated 30 minutes on ice. The cytosolic fraction (supernatant) is separated from the membranes by ultra-centrifugation (32000 rpm for 30 minutes 100,000g). The pellet is resuspended in storage buffer: 20 mM Hepes, 2 mM DTT (membrane fraction). […] Enzyme concentrations are determined using a Bradford assay. […]
row,IC50,Compound
1,112 nM,"CN(C)c1cc(C(=O)NCC2CC2)nc(N2CCC[C@@H](c3ccccc3)C2)n1 [Example 18, (S)-N-(cyclopropylmethyl)-6-(dimethylamino)-2-(3-phenylpiperidin-1-yl)pyrimidine-4-carboxamide]"
2,407 nM,"CN(C)c1cc(C(=O)NCC2CC2)nc(N2CCC[C@H](c3ccccc3)C2)n1 [Example 19, (R)-N-(cyclopropylmethyl)-6-(dimethylamino)-2-(3-phenylpiperidin-1-yl)pyrimidine-4-carboxamide]"
